Measured values published in patent publication US10058550B2, “Methods of treating heart failure” (priority 2015, dated 2018).

Experiments:
APJ receptor [1] = target: T1, APJ receptor (Homo sapiens (Human), UniProt P35414); type: biochemical; details: read-out: Activity hAPJ SPA EC50 IP
Protocol: The human APJ receptor was cloned by polymerase chain reaction and the gene encoding the receptor was subcloned in pFLAG-CMV™-3 expression vector (Sigma, Saint Louis, Mo. USA) in-house at Amgen. A GTPγS binding assay was performed on membranes prepared from CHO cells stably expressing human APJ receptor. The optimum experimental conditions for the concentrations of GDP, MgCl2, and NaCl in the assay buffer were initially determined. The assay was performed in assay buffer [20 mM HEPES, pH 7.5, 5 mM MgCl2, and 0.1% (w/v) BSA with 200 mM NaCl, 3 μM GDP] and membranes expressing human APJ receptor/well along with WGA PS beads. The reaction was initiated by addition of 0.2 nM [^35S]GTPγS (Perkin Elmer Life and Analytical Sciences, Waltham USA) in the absence or presence of various ligands and incubated at RT for 90 min. […] All the results presented are means of several independent experiments and analyzed by non-linear regression methods using commercially available program Prism (GraphPad, San Diego, Calif.) to obtain EC50 detailed in Table 58.

heart failure rat model = assay: Cardiac contractility in vivo in heart failure rat model (MI rat model); details: acute administration for 30 min
Protocol: Male Lewis rats (Charles River, USA) at 2-3 months of age were used for the study. […] APJ agonists were administered dose dependently acutely for a period of 30 min.

[2] = tested on: isolated perfused rat hearts; assay: Load independent inotropic effects, ex vivo assay (isolated perfused rat hearts, Langendorff); details: percent change over vehicle
Text: Evidence for Load Independent Inotropic Effects with APJ Agonists using Ex Vivo Assay (Isolated Perfused Rat Hearts)
Naive Sprague Dawley® SD rats (Harlan laboratories (Livermore, Calif. USA)) were anesthetized and hearts were excised followed by cannulation in the Langendorff apparatus (Harvard apparatus, Holliston, Mass. USA) via aorta. […] The pressure of the solution causes the aortic valve to shut and the perfusate is then forced into the ostium and the coronary vessels. This allows the heart to beat for several h. A balloon was inserted into the left ventricle (LV) to measure dP/dtmax (derivative of left ventricular pressure) as an index of cardiac contractility. The APJ agonist was perfused constantly in a dose dependent manner into the heart to examine cardiac contractility.

APJ receptor [3] = target: T1, APJ receptor; details: higher affinity than apelin-36; Kawamata et al., Hosoya et al.; cited from earlier work
[4] = target: human APJ-AT1R (angiotensin Type 1) double stable CHO cell line (Homo sapiens (Human), UniProt P30556+P35414); details: different concentrations of AngII with fixed concentration of pyr apelin-13; human APJ-AT1R double stable CHO cells
Protocol: (§1) The function of the inositol phosphate accumulation (IP1) was measured by Time-resolved fluorescence resonance energy (TR-FRET) at 620 nm and 665 nm respectively.

[5] = target: human APJ receptor expressed in the CHO cell line (Homo sapiens (Human), UniProt P35414); details: different concentrations of AngII with fixed concentration of pyr apelin-13; human APJ receptor expressed alone in CHO cells
Protocol: as §1

With `COc1cccc(OC)c1-n1c(NS(=O)(=O)[C@@H](C)[C@H](OC)c2ncc(C)cn2)nnc1-c1cccnc1` [Example 173.0, (1R,2S)-N-(4-(2,6-dimethoxyphenyl)-5-(pyridin-3-yl)-4H-1,2,4-triazol-3-yl)-1-methoxy-1-(5-methylpyrimidin-2-yl)propane-2-sulfonamide] as the molecule, how does the EC50 (APJ receptor [1]) read?
The EC50 was 1.2 nM.

With `COc1cccc(OC)c1-n1c(NS(=O)(=O)[C@H](C)[C@@H](C)c2cnc(C)cn2)nnc1-c1cncc(C)c1` [Example 199.0, (2R,3S)-N-(4-(2,6-dimethoxyphenyl)-5-(5-methylpyridin-3-yl)-4H-1,2,4-triazol-3-yl)-3-(5-methylpyrazin-2-yl)butane-2-sulfonamide] as the molecule, how does the EC50 (APJ receptor [1]) read?
The EC50 was 19 nM.

Which EC50 (APJ receptor [1]) does the source give for `COc1cccc(OC)c1-n1c(NS(=O)(=O)[C@H](C)[C@@H](C)c2ncc(C)cn2)nnc1-c1cncc(C)c1` [Example 238.0, (2R,3S)—N-(4-(2,6-dimethoxyphenyl)-5-(5-methylpyridin-3-yl)-4H-1,2,4-triazol-3-yl)-3-(5-methylpyrimidin-2-yl)butane-2-sulfonamide] here?
The EC50 was 12 nM.

For `COc1cccc(OC)c1-n1c(NS(=O)(=O)[C@@H](C)[C@H](C)c2ncc(C)cn2)nnc1-c1cncc(C)c1` [Example 263.0, (2S,3R)—N-(4-(2,6-dimethoxyphenyl)-5-(5-methylpyridin-3-yl)-4H-1,2,4-triazol-3-yl)-3-(5-methylpyrimidin-2-yl)butane-2-sulfonamide], which “MI Rat Model dP/dtmax (%)” value (heart failure rat model) is on record?
Its value is 25%.

What about the EC50 (APJ receptor [1]) of the same molecule?
Its EC50 is 0.32 nM.

What about the “Isolated Heart Assay dP/dtmax (%)” value [2] of the same molecule?
The value was 29%.

And the “Isolated Heart Assay dP/dtmin (%)” value [2]?
The value was 32%.

For `COc1cccc(OC)c1-n1c(NS(=O)(=O)[C@@H](C)[C@H](C)c2cnc(C)cn2)nnc1-c1cncc(C)c1` [Example 506.0, (2S,3R)—N-(4-(2,6-dimethoxyphenyl)-5-(5-methyl-3-pyridinyl)-4H-1,2,4-triazol-3-yl)-3-(5-methyl-2-pyrazinyl)-2-butanesulfonamide], which EC50 (APJ receptor [1]) is on record?
Its EC50 is 1.2 nM.

Which EC50 (APJ receptor [1]) does the source give for `COc1c(Br)cc(Br)c(OC)c1-n1c(NS(=O)(=O)[C@@H](C)[C@H](C)c2ncc(C)cn2)nnc1-c1cncc(C)c1` [Example 732.0, (2S,3R)—N-(4-(3,5-dibromo-2,6-dimethoxyphenyl)-5-(5-methylpyridin-3-yl)-4H-1,2,4-triazol-3-yl)-3-(5-methylpyrimidin-2-yl)butane-2-sulfonamide] here?
Its EC50 is 37 nM.

With `COc1cccc(OC)c1-n1c(NS(=O)(=O)[C@@H](C)[C@H](C)c2ncc(C)cn2)nnc1-c1cncc(CO)c1` [Example 846.0, (2S,3R)-N-(4-(2,6-dimethoxyphenyl)-5-(5-(hydroxymethyl)-3-pyridinyl)-4H-1,2,4-triazol-3-yl)-3-(5-methyl-2-pyrimidinyl)-2-butanesulfonamide] as the molecule, how does the EC50 (APJ receptor [1]) read?
Its EC50 is 6.6 nM.

With Apelin-13 as the molecule, how does the “in vitro affinity to the APJ receptor relative to apelin-36” value (APJ receptor [3]) read?
The value was roughly 3.5 fold.

With “pyroglutamated apelin-13 [pyr apelin-13]” as the molecule, how does the “positive cooperativity on the AT1R (IP1 accumulation)” value [4] read?
Its value is “induces the positive cooperativity on the AT1R”.

What about the “positive cooperativity (IP1 accumulation)” value [5] of the same molecule?
The value was “no positive cooperativity observed”.
